Measurements: BindingDB's records for doi:10.7270/Q27P8WSS (Srmlsc, 2007)

Target: T1, Mevalonate kinase (Streptococcus pneumoniae serotype 2 (strain D39 / NCTC 7466), UniProt A0A0H2ZQX9)
T1 sequence (A0A0H2ZQX9 whole entry): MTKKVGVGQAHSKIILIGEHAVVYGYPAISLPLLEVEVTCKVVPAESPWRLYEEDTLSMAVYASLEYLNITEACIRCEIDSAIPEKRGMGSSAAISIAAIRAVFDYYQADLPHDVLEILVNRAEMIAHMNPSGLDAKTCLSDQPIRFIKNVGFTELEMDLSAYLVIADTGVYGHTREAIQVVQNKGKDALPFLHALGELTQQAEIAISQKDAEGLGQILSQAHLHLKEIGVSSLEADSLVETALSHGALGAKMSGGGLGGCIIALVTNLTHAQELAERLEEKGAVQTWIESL

O=c1c2ccccc2[se]n1-c1ccccc1 [2-Phenyl-benzo[d]isoselenazol-3-one]
IC50: 101 µM
